{"sequences": {"note": "Sequences of proteins named here, by UniProt entry; tags and fusion partners are left off.", "UniProt P41143, whole entry, looked up": "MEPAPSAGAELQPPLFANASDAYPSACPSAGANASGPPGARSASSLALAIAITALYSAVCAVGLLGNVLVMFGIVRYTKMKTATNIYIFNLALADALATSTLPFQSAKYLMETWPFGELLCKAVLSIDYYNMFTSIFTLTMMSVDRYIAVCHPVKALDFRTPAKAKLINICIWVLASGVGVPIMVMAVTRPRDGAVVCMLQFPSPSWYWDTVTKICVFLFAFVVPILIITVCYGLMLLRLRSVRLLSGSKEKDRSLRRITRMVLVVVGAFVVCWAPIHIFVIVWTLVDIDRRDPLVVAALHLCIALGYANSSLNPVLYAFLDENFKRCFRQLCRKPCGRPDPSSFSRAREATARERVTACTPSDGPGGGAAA", "UniProt P35372, whole entry, looked up": "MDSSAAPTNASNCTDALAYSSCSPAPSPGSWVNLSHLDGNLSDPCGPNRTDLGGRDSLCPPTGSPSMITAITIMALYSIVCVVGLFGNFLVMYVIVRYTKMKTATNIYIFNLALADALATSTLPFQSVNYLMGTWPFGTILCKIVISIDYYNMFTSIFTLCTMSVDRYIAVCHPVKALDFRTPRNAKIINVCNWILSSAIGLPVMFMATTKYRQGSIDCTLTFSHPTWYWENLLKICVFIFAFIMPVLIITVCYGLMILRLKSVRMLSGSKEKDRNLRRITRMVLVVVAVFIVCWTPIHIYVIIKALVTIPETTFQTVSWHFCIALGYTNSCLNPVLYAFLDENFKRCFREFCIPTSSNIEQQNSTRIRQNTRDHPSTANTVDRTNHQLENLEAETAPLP"}, "source": "ChEMBL document CHEMBL1138638", "about": "“Azepinone as a conformational constraint in the design of kappa-opioid receptor agonists” (Bioorg Med Chem Lett, 2004)", "key": {"Mus musculus": {"system": "Mus musculus", "experiment": "Effective dose required to inhibit acetic acid induced writhing in mouse when administered orally"}, "[1]": {"biological_target": "Delta-type opioid receptor (Homo sapiens, UniProt P41143)", "experiment": "Binding affinity for human Delta opioid receptor"}, "Mu-type opioid receptor": {"biological_target": "Mu-type opioid receptor (Homo sapiens, UniProt P35372)", "experiment": "Binding affinity for human Mu opioid receptor"}}, "data": [{"molecule": "CN(C(=O)Cc1ccc(Cl)c(Cl)c1)C(CN1CCCC1)c1ccccc1", "note": "(stereo not drawn)", "values": [{"measurement": "ED50", "setting": "Mus musculus", "result": 0.17, "unit": "mg/kg"}, {"measurement": "Ki", "setting": "[1]", "result": 24, "unit": "nM"}, {"measurement": "Ki", "setting": "Mu-type opioid receptor", "result": 53, "unit": "nM"}]}]}
